Source: article PMC4194234 (Psychopharmacology, 2014)

Sequences of proteins named here, by UniProt entry; tags and fusion partners are left off.
UniProt P28223, whole entry: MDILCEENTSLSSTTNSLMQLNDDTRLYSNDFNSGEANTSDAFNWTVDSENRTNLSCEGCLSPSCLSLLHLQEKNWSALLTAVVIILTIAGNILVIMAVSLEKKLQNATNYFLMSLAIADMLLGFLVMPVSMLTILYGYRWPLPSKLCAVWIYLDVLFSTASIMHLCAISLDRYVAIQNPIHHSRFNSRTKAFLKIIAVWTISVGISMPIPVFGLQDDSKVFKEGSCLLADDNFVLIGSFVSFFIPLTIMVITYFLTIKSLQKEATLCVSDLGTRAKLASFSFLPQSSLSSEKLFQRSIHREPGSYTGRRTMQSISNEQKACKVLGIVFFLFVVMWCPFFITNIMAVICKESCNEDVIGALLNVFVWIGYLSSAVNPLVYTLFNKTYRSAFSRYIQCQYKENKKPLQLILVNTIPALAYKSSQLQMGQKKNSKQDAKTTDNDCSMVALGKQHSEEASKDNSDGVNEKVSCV

Target: 5-HT2A receptor (Homo sapiens, UniProt P28223)
Assay: cell-based

For `COc1ccc2[nH]cc(CCN(C(C)C)C(C)C)c2c1` [Compound 1, N,N-diisopropyl-5-methoxytryptamine], the EC50 was 0.946 ± 0.141 µM.
